Molecules are shown by their SMILES.

Sequences of proteins named here, by UniProt entry; tags and fusion partners are left off. Residues count along the entry.
UniProt P43220, 24-463: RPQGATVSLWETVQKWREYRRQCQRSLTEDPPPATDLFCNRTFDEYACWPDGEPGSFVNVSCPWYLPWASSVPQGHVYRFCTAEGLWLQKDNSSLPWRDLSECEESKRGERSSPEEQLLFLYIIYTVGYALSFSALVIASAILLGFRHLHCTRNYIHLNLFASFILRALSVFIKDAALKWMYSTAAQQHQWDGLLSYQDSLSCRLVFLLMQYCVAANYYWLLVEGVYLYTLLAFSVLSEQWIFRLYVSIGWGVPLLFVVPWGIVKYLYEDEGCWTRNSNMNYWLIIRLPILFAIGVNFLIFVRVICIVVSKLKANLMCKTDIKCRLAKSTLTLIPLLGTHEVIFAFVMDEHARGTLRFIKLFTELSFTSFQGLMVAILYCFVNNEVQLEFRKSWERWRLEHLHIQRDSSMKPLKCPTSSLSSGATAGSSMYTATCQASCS
UniProt P47871, 26-477: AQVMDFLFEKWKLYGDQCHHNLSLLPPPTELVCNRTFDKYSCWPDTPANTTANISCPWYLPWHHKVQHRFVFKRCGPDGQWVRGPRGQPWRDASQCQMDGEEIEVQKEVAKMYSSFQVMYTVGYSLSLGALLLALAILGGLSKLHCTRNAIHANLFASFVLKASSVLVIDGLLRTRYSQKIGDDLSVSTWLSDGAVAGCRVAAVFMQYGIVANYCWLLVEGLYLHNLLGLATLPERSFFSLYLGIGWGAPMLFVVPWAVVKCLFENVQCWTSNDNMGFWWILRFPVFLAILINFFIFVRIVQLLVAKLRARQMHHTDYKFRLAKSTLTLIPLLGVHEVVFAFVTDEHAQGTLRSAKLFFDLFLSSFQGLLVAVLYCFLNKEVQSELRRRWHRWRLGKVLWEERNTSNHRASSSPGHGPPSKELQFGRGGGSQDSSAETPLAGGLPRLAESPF

A word on the EC50: it is the concentration needed to bring the measured effect to its halfway point.

One experiment has as its target T1, human GLP-1 receptor (Homo sapiens, UniProt P43220).
T1 construct: expressed in transfected cells; host or cells: HEK-293
As to the kind of experiment: cAMP response (HTRF) of HEK-293 cells stably expressing human GLP-1 receptor. The experiment is classed as cell-based. Conditions: Table 5; cAMP, HEK-293; read-out: EC50 hGLP-1R. Background: Time-resolved FRET reads energy transfer from a long-lived donor to a nearby acceptor.

Another experiment has as its target T2, human glucagon receptor (Homo sapiens, UniProt P47871).
T2 construct: expressed in transfected cells; host or cells: HEK-293
Nature of the experiment: cAMP response (HTRF) of HEK-293 cells stably expressing human glucagon receptor. Conditions: Table 5; cAMP, HEK-293; read-out: EC50 hGlucagon-R. The experiment is classed as cell-based.

On to `CCCCCCCCCCCCCCCC(=O)N[C@@H](CCC(=O)NCCCC[C@H](NC(=O)[C@H](CCC(N)=O)NC(=O)[C@H](CCCCN)NC(=O)[C@H](CO)NC(=O)[C@H](CC(C)C)NC(=O)[C@H](CC(=O)O)NC(=O)[C@H](CO)NC(=O)[C@@H](NC(=O)[C@H](Cc1ccccc1)NC(=O)[C@@H](NC(=O)CNC(=O)[C@H](CCC(N)=O)NC(=O)[C@@H](CO)NC(=O)[C@@H](N)Cc1c[nH]cn1)[C@@H](C)O)[C@@H](C)O)C(=O)N[C@@H](CCC(=O)O)C(=O)N[C@@H](CO)C(=O)N[C@@H](CCCNC(=N)N)C(=O)N[C@@H](CCCNC(=N)N)C(=O)N[C@@H](C)C(=O)N[C@@H](CCC(N)=O)C(=O)N[C@@H](CC(=O)O)C(=O)N[C@@H](Cc1ccccc1)C(=O)N[C@H](C(=O)N[C@@H](CCC(=O)O)C(=O)N[C@@H](Cc1c[nH]c2ccccc12)C(=O)N[C@@H](CC(C)C)C(=O)N[C@@H](CCCCN)C(=O)N[C@@H](CC(N)=O)C(=O)N[C@H](C(=O)NCC(=O)N1CCC[C@H]1C(=O)N[C@@H](CO)C(=O)N[C@@H](CO)C(=O)NCC(=O)N[C@@H](C)C(=O)N1CCC[C@H]1C(=O)N1CCC[C@H]1C(=O)N1CCC[C@H]1C(=O)N[C@@H](CO)C(N)=O)[C@@H](C)O)[C@@H](C)CC)C(=O)O` [compound 96], for which the EC50 on human GLP-1 receptor turned out to be 0.0743 nM; at human glucagon receptor, 0.0034 nM.

On to `CCCCCCCCCCCCCCCC(=O)NCCCC[C@H](NC(=O)[C@H](CCC(N)=O)NC(=O)[C@H](CCCCN)NC(=O)[C@H](CO)NC(=O)[C@H](CC(C)C)NC(=O)[C@H](CC(=O)O)NC(=O)[C@H](CO)NC(=O)[C@@H](NC(=O)[C@H](Cc1ccccc1)NC(=O)[C@@H](NC(=O)CNC(=O)[C@H](CCC(N)=O)NC(=O)[C@@H](CO)NC(=O)[C@@H](N)Cc1c[nH]cn1)[C@@H](C)O)[C@@H](C)O)C(=O)N[C@@H](CC(=O)O)C(=O)N[C@@H](CO)C(=O)N[C@@H](CCCNC(=N)N)C(=O)N[C@@H](CCCNC(=N)N)C(=O)N[C@@H](C)C(=O)N[C@@H](CCC(N)=O)C(=O)N[C@@H](CC(=O)O)C(=O)N[C@@H](Cc1ccccc1)C(=O)N[C@H](C(=O)N[C@@H](CCC(=O)O)C(=O)N[C@@H](Cc1c[nH]c2ccccc12)C(=O)N[C@@H](CC(C)C)C(=O)N[C@@H](CCCCN)C(=O)N[C@@H](CC(=O)O)C(=O)NCC(=O)NCC(=O)N1CCC[C@H]1C(=O)N[C@@H](CO)C(=O)N[C@@H](CO)C(=O)NCC(=O)N[C@@H](C)C(=O)N1CCC[C@H]1C(=O)N1CCC[C@H]1C(=O)N1CCC[C@H]1C(=O)N[C@@H](CO)C(N)=O)[C@@H](C)CC` [compound 81], for which the results for the concentration giving a half-maximal response (EC50) on human GLP-1 receptor and at human glucagon receptor were 0.048 nM and 0.0071 nM, respectively.

`CCCCCCCCCCCCCCCC(=O)NCCCC[C@H](NC(=O)[C@H](CCC(N)=O)NC(=O)[C@H](CCCCN)NC(=O)[C@H](CO)NC(=O)[C@H](CC(C)C)NC(=O)[C@H](CC(=O)O)NC(=O)[C@H](CO)NC(=O)[C@@H](NC(=O)[C@H](Cc1ccccc1)NC(=O)[C@@H](NC(=O)CNC(=O)[C@H](CCC(N)=O)NC(=O)[C@@H](CO)NC(=O)[C@@H](N)Cc1c[nH]cn1)[C@@H](C)O)[C@@H](C)O)C(=O)N[C@@H](CCC(=O)O)C(=O)N[C@@H](CO)C(=O)N[C@@H](CCCNC(=N)N)C(=O)N[C@@H](CCCNC(=N)N)C(=O)N[C@@H](C)C(=O)N[C@@H](CCC(N)=O)C(=O)N[C@@H](CC(=O)O)C(=O)N[C@@H](Cc1ccccc1)C(=O)N[C@H](C(=O)N[C@@H](CCC(=O)O)C(=O)N[C@@H](Cc1c[nH]c2ccccc12)C(=O)N[C@@H](CC(C)C)C(=O)N[C@@H](CCCCN)C(=O)N[C@@H](CCC(=O)O)C(=O)NCC(=O)NCC(=O)N1CCC[C@H]1C(=O)N[C@@H](CO)C(=O)N[C@@H](CO)C(=O)NCC(=O)N[C@@H](CCCNC(=N)N)C(=O)N1CCC[C@H]1C(=O)N1CCC[C@H]1C(=O)N1CCC[C@H]1C(=O)N[C@@H](CO)C(N)=O)[C@@H](C)CC` [compound 83]: the values for the EC50 on human GLP-1 receptor and at human glucagon receptor were 0.0539 nM and 0.0413 nM, respectively.

With `CCCCCCCCCCCCCCCC(=O)N[C@@H](CCC(=O)NCCCC[C@H](NC(=O)[C@H](CCC(N)=O)NC(=O)[C@H](CCCCN)NC(=O)[C@H](CO)NC(=O)[C@H](CC(C)C)NC(=O)[C@H](CC(=O)O)NC(=O)[C@H](CO)NC(=O)[C@@H](NC(=O)[C@H](Cc1ccccc1)NC(=O)[C@@H](NC(=O)CNC(=O)[C@H](CCC(N)=O)NC(=O)[C@@H](CO)NC(=O)[C@@H](N)Cc1c[nH]cn1)[C@@H](C)O)[C@@H](C)O)C(=O)N[C@@H](CC(=O)O)C(=O)N[C@@H](CO)C(=O)N[C@@H](CCCNC(=N)N)C(=O)N[C@@H](CCCNC(=N)N)C(=O)N[C@@H](C)C(=O)N[C@@H](CCC(N)=O)C(=O)N[C@@H](CC(=O)O)C(=O)N[C@@H](Cc1ccccc1)C(=O)N[C@H](C(=O)N[C@@H](CCC(=O)O)C(=O)N[C@@H](Cc1c[nH]c2ccccc12)C(=O)N[C@@H](CC(C)C)C(=O)N[C@@H](CCCCN)C(=O)N[C@@H](CC(N)=O)C(=O)NCC(=O)NCC(=O)N1CCC[C@H]1C(=O)N[C@@H](CO)C(=O)N[C@@H](CO)C(=O)NCC(=O)N[C@@H](C)C(=O)N1CCC[C@H]1C(=O)N1CCC[C@H]1C(=O)N1CCC[C@H]1C(=O)N[C@@H](CO)C(=O)NN1CCCC1)[C@@H](C)CC)C(=O)O` [compound 98], the EC50 is 0.0096 nM at human GLP-1 receptor and 0.0014 nM at human glucagon receptor.

For `CCCCCCCCCCCCCCCC(=O)NCCCC(=O)NCCCC[C@H](NC(=O)[C@H](CCC(N)=O)NC(=O)[C@H](CCCCN)NC(=O)[C@H](CO)NC(=O)[C@H](CC(C)C)NC(=O)[C@H](CC(=O)O)NC(=O)[C@H](CO)NC(=O)[C@@H](NC(=O)[C@H](Cc1ccccc1)NC(=O)[C@@H](NC(=O)CNC(=O)[C@H](CCC(N)=O)NC(=O)[C@@H](CO)NC(=O)[C@@H](N)Cc1c[nH]cn1)[C@@H](C)O)[C@@H](C)O)C(=O)N[C@@H](CCC(=O)O)C(=O)N[C@@H](CO)C(=O)N[C@@H](CCCNC(=N)N)C(=O)N[C@@H](C)C(=O)N[C@@H](C)C(=O)N[C@@H](CCC(N)=O)C(=O)N[C@@H](CC(=O)O)C(=O)N[C@@H](Cc1ccccc1)C(=O)N[C@H](C(=O)N[C@@H](CCC(=O)O)C(=O)N[C@@H](Cc1c[nH]c2ccccc12)C(=O)N[C@@H](CC(C)C)C(=O)N[C@@H](CCCCN)C(=O)N[C@@H](C)C(=O)NCC(=O)NCC(=O)N1CCC[C@H]1C(=O)N[C@@H](CO)C(=O)N[C@@H](CO)C(=O)NCC(=O)N[C@@H](C)C(=O)N1CCC[C@H]1C(=O)N1CCC[C@H]1C(=O)N1CCC[C@H]1C(=O)N[C@@H](CO)C(N)=O)[C@@H](C)CC` [compound 50], the half-maximal effective concentration (EC50) on human GLP-1 receptor was 0.0033 nM; at human glucagon receptor, 0.0111 nM.

Turning to `CCCCCCCC/C=C\CCCCCCCCC(=O)N[C@@H](CCC(=O)NCCCC[C@H](NC(=O)[C@H](CCC(N)=O)NC(=O)[C@H](CCCCN)NC(=O)[C@H](CO)NC(=O)[C@H](CC(C)C)NC(=O)[C@H](CC(=O)O)NC(=O)[C@H](CO)NC(=O)[C@@H](NC(=O)[C@H](Cc1ccccc1)NC(=O)[C@@H](NC(=O)CNC(=O)[C@H](CCC(N)=O)NC(=O)[C@@H](CO)NC(=O)[C@@H](N)Cc1c[nH]cn1)[C@@H](C)O)[C@@H](C)O)C(=O)N[C@@H](CCC(=O)O)C(=O)N[C@@H](CO)C(=O)N[C@@H](CCCNC(=N)N)C(=O)N[C@@H](C)C(=O)N[C@@H](C)C(=O)N[C@@H](CCC(N)=O)C(=O)N[C@@H](CC(=O)O)C(=O)N[C@@H](Cc1ccccc1)C(=O)N[C@H](C(=O)N[C@@H](CCC(=O)O)C(=O)N[C@@H](Cc1c[nH]c2ccccc12)C(=O)N[C@@H](CC(C)C)C(=O)N[C@@H](CCCCN)C(=O)N[C@@H](C)C(=O)NCC(=O)NCC(=O)N1CCC[C@H]1C(=O)N[C@@H](CO)C(=O)N[C@@H](CO)C(=O)NCC(=O)N[C@@H](C)C(=O)N1CCC[C@H]1C(=O)N1CCC[C@H]1C(=O)N1CCC[C@H]1C(=O)N[C@@H](CO)C(N)=O)[C@@H](C)CC)C(=O)O` [compound 61], the results for the EC50 on human GLP-1 receptor and on human glucagon receptor were 0.0053 nM and 0.016 nM, respectively.

Turning to `CCCCCCCCCCCCCCCC(=O)N[C@@H](CCC(=O)NCCCC[C@H](NC(=O)[C@H](CCC(N)=O)NC(=O)[C@H](CCCCN)NC(=O)[C@H](CO)NC(=O)[C@H](CC(C)C)NC(=O)[C@H](CC(=O)O)NC(=O)[C@H](CO)NC(=O)[C@@H](NC(=O)[C@H](Cc1ccccc1)NC(=O)[C@@H](NC(=O)CNC(=O)[C@H](CCC(N)=O)NC(=O)[C@@H](CO)NC(=O)[C@@H](N)Cc1c[nH]cn1)[C@@H](C)O)[C@@H](C)O)C(=O)N[C@@H](CCC(=O)O)C(=O)N[C@@H](CO)C(=O)N[C@@H](CCCNC(=N)N)C(=O)N[C@@H](CCCNC(=N)N)C(=O)N[C@@H](C)C(=O)N[C@@H](CCC(N)=O)C(=O)N[C@@H](CC(=O)O)C(=O)N[C@@H](Cc1ccccc1)C(=O)N[C@H](C(=O)N[C@@H](CCC(=O)O)C(=O)N[C@@H](Cc1c[nH]c2ccccc12)C(=O)N[C@@H](CC(C)C)C(=O)N[C@@H](CCCCN)C(=O)N[C@@H](CC(N)=O)C(=O)N[C@@H](C)C(=O)NCC(=O)N1CCC[C@H]1C(=O)N[C@@H](CO)C(=O)N[C@@H](CO)C(=O)NCC(=O)N[C@@H](C)C(=O)N1CCC[C@H]1C(=O)N1CCC[C@H]1C(=O)N1CCC[C@H]1C(=O)N[C@@H](CO)C(N)=O)[C@@H](C)CC)C(=O)O` [compound 95], the EC50 worked out at 0.0206 nM on human GLP-1 receptor and 0.0092 nM at human glucagon receptor.

With `CCCCCCCCCCCCCCCC(=O)N[C@@H](CCC(=O)NCCCC[C@H](NC(=O)[C@H](CO)NC(=O)[C@@H]1CCCN1C(=O)[C@@H]1CCCN1C(=O)[C@@H]1CCCN1C(=O)[C@H](C)NC(=O)CNC(=O)[C@H](CO)NC(=O)[C@H](CO)NC(=O)[C@@H]1CCCN1C(=O)CNC(=O)CNC(=O)[C@H](C)NC(=O)[C@H](CCCCN)NC(=O)[C@H](CC(C)C)NC(=O)[C@H](Cc1c[nH]c2ccccc12)NC(=O)[C@H](CCC(=O)O)NC(=O)[C@@H](NC(=O)[C@H](Cc1ccccc1)NC(=O)[C@H](CC(C)C)NC(=O)[C@H](CCC(N)=O)NC(=O)[C@H](C)NC(=O)[C@H](CCCNC(=N)N)NC(=O)[C@H](CCCNC(=N)N)NC(=O)[C@H](CO)NC(=O)[C@H](CCC(=O)O)NC(=O)[C@H](CCCCNC(=O)CC[C@H](NC(=O)CCCCCCCCCCCCCCC)C(=O)O)NC(=O)[C@H](CCC(N)=O)NC(=O)[C@H](CCCCN)NC(=O)[C@H](CO)NC(=O)[C@H](CC(C)C)NC(=O)[C@H](CC(=O)O)NC(=O)[C@H](CO)NC(=O)[C@@H](NC(=O)[C@H](Cc1ccccc1)NC(=O)[C@@H](NC(=O)CNC(=O)[C@H](CCC(N)=O)NC(=O)[C@@H](CO)NC(=O)[C@@H](N)Cc1c[nH]cn1)[C@@H](C)O)[C@@H](C)O)[C@@H](C)CC)C(N)=O)C(=O)O` [compound 6], the EC50 on human GLP-1 receptor turned out to be 0.141 nM; on human glucagon receptor, 0.0189 nM.
